The values that follow come from ChEMBL document CHEMBL3886144, “Substituted-quinoxaline-type piperidine compounds and the uses thereof” (2014).

By UniProt entry, the sequences of proteins in these tests, tags left out.
UniProt P41143, whole entry, looked up: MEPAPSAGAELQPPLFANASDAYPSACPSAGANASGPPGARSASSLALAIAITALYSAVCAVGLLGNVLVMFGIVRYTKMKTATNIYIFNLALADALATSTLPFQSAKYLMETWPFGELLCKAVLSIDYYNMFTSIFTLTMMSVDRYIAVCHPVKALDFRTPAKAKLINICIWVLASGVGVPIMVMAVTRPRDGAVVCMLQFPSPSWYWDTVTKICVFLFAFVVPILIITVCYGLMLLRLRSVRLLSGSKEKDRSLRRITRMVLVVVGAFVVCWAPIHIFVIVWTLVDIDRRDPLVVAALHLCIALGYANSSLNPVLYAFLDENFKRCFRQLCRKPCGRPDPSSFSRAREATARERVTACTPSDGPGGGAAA
UniProt P35372, whole entry, looked up: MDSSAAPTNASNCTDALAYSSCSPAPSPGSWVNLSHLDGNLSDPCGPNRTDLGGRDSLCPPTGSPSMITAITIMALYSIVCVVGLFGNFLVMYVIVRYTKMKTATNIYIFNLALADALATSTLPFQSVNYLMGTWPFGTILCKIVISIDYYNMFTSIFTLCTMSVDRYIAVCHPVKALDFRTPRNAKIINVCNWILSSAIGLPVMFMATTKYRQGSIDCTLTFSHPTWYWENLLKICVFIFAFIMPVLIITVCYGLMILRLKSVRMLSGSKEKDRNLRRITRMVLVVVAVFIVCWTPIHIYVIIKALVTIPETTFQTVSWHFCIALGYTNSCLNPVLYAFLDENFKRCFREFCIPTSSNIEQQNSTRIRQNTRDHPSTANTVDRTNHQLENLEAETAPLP

A word on the Ki: it is a dissociation constant, usually derived from enzyme kinetics or from competition with a known ligand.

SMILES strings stand for the structures.

Experiment [1] deals with Delta-type opioid receptor (Homo sapiens, UniProt P41143). The experiment can be described thus: Radioligand Binding Assay: Radioligand dose-displacement assays used 0.2nM [3H]-Naltrindole (NEN; 33.0 Ci/mmole) with 10-20ug membrane protein (recombinant delta opioid receptor expressend in CHO-K1 cells; Perkin Elmer) in a final volume of 500uL binding buffer (5mM MgCl2, 5% DMSO, 50mM Trizma base, pH 7.4). Non-specific binding was determined in the presence of 25 uM unlabeled naloxone. All react.

For another experiment, the target named is Mu-type opioid receptor (Homo sapiens, UniProt P35372). The experiment can be described thus: Radioligand Binding Assay: Radioligand dose-displacement binding assays for u-opioid receptors used 0.2nM[3H]-diprenorphine (NEN, Boston, Mass.), with 5-20mg membrane protein/well in a final volume of 500 uL binding buffer (10mM MgCl2, 1mM EDTA, 5% DMSO, 50mM HEPES, pH 7.4). Reactions were carried out in the absence or presence of increasing concentrations of unlabeled naloxone. All reactions were.

As to `N#C[C@@H]1CCCN1C(=O)[C@@H]1CC[C@@H](CO)N1`, the Ki in experiment [1] is 76.3 µM; on Mu-type opioid receptor it was 13.5 µM.
Turning to `Cc1cc(C)nc(SCc2ccc(C(=O)NN/C=C3\C=CC=C(O)C3=O)cc2)n1`, in experiment [1], the Ki was 57.7 µM.
